Tests used:
[1] = target: T1, Catenin beta-1 (Homo sapiens, UniProt P35222); assay: Inhibition of human wild-type beta-catenin (residues 138-686)/C-terminally fluorescein labeled human wild-type Tcf4 (residues 7-51) interaction after […] by FP competitive inhibition assay
[2] = target: T1, Catenin beta-1; assay: Inhibition of human wild-type beta-catenin (residues 138-686)/C-terminally fluorescein-labeled human E-cadherin (residues 819-873) interaction by FP competitive inhibition assay
[3] = target: T1, Catenin beta-1; assay: Inhibition of human wild-type beta-catenin (residues 138-686)/C-terminally fluorescein-labeled human APC-R3 (residues 1477-1519) interaction by FP competitive inhibition assay
[4] = target: Catenin beta-1 (Homo sapiens, UniProt P35222, R469A)

Sequences of proteins named here, by UniProt entry; tags and fusion partners are left off. Residues count along the entry.
UniProt P35222, whole entry: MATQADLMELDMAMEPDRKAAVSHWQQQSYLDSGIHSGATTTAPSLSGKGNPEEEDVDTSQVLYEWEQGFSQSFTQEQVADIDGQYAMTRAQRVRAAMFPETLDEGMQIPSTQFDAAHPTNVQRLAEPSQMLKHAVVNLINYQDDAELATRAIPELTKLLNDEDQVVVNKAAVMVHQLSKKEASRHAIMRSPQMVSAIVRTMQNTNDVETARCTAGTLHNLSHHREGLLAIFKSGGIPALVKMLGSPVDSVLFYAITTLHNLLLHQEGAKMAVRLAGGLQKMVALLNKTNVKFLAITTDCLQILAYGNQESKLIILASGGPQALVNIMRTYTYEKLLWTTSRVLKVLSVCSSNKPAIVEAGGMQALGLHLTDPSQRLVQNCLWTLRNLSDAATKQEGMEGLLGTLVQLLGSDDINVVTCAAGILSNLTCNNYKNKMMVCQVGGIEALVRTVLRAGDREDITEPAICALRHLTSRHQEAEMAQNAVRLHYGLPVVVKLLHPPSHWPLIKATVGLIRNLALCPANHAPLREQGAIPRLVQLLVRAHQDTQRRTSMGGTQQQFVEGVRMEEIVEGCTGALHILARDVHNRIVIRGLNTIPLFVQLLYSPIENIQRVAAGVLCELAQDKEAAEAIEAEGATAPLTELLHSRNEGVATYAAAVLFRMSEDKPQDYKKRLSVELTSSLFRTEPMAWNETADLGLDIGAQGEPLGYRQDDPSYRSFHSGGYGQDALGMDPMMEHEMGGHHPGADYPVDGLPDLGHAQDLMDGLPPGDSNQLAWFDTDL
UniProt P35222, 2-781 R469A limits assumed: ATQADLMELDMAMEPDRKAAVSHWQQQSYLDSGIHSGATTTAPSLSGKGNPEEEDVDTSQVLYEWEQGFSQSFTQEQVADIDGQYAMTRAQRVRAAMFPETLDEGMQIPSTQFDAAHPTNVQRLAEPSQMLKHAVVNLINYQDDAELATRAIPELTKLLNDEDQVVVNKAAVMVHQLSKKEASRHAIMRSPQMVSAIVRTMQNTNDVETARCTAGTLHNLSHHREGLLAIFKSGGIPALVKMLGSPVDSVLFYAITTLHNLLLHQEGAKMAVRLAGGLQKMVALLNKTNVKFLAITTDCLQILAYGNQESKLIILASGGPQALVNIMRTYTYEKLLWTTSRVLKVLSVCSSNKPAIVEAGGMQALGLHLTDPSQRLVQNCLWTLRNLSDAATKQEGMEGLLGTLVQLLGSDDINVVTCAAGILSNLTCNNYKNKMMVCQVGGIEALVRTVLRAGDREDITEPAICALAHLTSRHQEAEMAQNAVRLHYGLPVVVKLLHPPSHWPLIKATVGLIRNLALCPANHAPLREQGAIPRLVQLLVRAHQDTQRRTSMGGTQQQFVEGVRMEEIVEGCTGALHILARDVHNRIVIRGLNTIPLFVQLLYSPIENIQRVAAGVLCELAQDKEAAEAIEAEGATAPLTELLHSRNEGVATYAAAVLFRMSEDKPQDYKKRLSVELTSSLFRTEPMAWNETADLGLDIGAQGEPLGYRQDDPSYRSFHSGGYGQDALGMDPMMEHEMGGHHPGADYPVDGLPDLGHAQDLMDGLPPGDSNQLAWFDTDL

IC50 [1]: 15 µM | IC50 [2]: 170 µM | IC50 [3]: 340 µM | Ki [4]: 59 µM
SMILES: O=C(O)CCCn1c2ccccc2c2nc3nonc3nc21

— ChEMBL document CHEMBL3588842, “Discovery of Selective Small-Molecule Inhibitors for the β-Catenin/T-Cell Factor Protein-Protein Interaction through the Optimization of the Acyl Hydrazone Moiety” (J Med Chem, 2015)
